{"sequences": {"note": "Protein sequences, listed by entry. Tags and fused reporters are not part of them. Lines headed by an entry give the natural chain unless they say otherwise; changes in a name come on top.", "UniProt P70057": "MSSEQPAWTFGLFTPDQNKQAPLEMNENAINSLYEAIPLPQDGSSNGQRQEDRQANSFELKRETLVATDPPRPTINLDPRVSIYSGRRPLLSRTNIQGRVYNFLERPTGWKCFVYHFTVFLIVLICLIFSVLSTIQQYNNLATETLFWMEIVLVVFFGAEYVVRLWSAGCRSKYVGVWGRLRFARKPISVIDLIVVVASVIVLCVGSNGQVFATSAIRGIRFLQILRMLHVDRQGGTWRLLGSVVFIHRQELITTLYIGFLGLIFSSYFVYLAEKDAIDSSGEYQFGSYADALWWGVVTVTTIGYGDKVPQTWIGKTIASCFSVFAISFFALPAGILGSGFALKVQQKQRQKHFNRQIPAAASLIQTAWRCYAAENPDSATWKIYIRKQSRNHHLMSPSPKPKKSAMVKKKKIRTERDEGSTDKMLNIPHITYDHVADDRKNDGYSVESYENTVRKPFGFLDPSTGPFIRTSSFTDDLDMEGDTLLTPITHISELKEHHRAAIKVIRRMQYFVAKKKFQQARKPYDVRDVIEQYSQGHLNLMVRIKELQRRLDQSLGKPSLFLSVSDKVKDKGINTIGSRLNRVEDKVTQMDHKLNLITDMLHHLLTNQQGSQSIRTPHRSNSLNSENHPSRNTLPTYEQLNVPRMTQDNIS"}, "source": "patent US5955607A", "about": "“Sulfonamide-substituted chromans, processes for their preparation, their use as a medicament or diagnostic, and pharmaceutical preparations comprising them” (priority 1997, dated 1999)", "molecular_target": "T1, human IsK protein (UniProt P15382+P70057)", "T1 construct": "channel formed with endogenous oocyte KCNQ1; two-microelectrode voltage clamp", "assay": "cell-based"}
{"smiles": "CCS(=O)(=O)N(CC(=O)NCCc1ccc(F)cc1)C1CC(C)(C)Oc2ccc(F)cc21", "note": "(stereo not shown) [Example 59, 2-[Ethanesulfonyl-(6-fluoro-2,2-dimethyl-chroman-4-yl)-amino]-N-[2-(4-fluoro-phenyl)-ethyl]-acetamide]", "values": [{"measurement": "IC50", "result": "< 100", "unit": "nM"}]}
